What all share (type): cell-based
For assay [1], the target named is T1, GLP-1R (Homo sapiens, UniProt P43220). Nature of the assay: HitHunter cAMP assay (GLP-1R). The protocol: (§1) Suspension cells were harvested and resuspended in 1×HBSS (+10 mM HEPES, 625 μM IBMX, 0.2% BSA) according to the following procedure: 5 μL of 2× cell suspension+1× antibody were added to each well, where the optimal cell density was 10,000 cells per well in a low volume 384-well plate. Agonist serial dilutions in a separate 384 well dilution plate in a 22-point series of 2× dilutions of agonist in DMSO were performed as follows. 80 μL of the highest concentration of Agonist/DMSO was added to well No. 1. 40 μL was removed from well No. 1 and added it to well No. 2, followed by gentle mixing. […] This process was repeated until well No. 22. Additional serial dilutions for additional agonists were set up in a similar manner. 50 nL of each 2× agonist serial dilution was added in duplicate to the designated agonist rows of the assay plate using the Labcyte ECHO. Assay plate was incubated for 30 minutes at room temperature. Following agonist incubation, 5 μL of cAMP Antibody Reagent was added to all wells. […] Plates were spun down briefly. Assay plate was incubated for 1 hour at room temperature in the dark for the immunocompetition reaction to occur. […] Plates were spun down briefly. Assay plate was incubated O/N at room temperature in the dark. Samples were read on Tecan i-control plate reader using luminescence mode with 300 ms integration time. Data analysis was performed using GraphPad Prism.

Protein sequences, listed by entry. Tags and fused reporters are not part of them. Residues count along the entry.
UniProt P43220, 24-463: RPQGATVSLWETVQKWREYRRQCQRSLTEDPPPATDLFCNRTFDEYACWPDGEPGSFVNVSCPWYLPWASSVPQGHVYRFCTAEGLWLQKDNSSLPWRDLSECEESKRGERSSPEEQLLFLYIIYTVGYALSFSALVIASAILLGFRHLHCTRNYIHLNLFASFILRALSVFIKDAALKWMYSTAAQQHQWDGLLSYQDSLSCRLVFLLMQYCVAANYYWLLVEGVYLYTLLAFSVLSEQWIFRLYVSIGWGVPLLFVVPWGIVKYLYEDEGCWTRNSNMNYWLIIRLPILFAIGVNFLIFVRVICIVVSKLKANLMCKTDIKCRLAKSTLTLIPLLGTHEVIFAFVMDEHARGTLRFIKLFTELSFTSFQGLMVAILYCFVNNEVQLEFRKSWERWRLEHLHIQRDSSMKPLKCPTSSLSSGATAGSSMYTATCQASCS

Assay [2] concerns the target T1, GLP-1R. Nature of the assay: PathHunter β-arrestin assay. The protocol:
The effects of the chemical entities described herein on β-arrestin signaling and associated downstream processes (e.g., those delineated above) can be assessed using conventional methods, e.g., PathHunter β-arrestin Assay for determining β-arresting coupling (see Examples section). […] It has been shown that b-arrestin coupling is a key strep in receptor internalization and subsequent de-sensitization and attenuation of signaling.
5,000 cells were seeded in appropriate cell culture media per well in a low volume 384-well tissue culture plate. The assay plate was incubated with cells overnight at 37° C. and 5% CO2. The media was removed, and 5 μL of appropriate cell culture media containing 0.2% BSA was added. Agonist serial dilutions in a separate 384 well dilution plate in a 22-point series of 2× dilutions of agonist in DMSO were performed as follows. 80 μL of the highest concentration of Agonist/DMSO was added to well No. 1. 40 μL was removed from well No. 1, and added to well No. 2, followed by gentle mixing. […] This process was repeated until well No. 22. Additional serial dilutions for additional agonists were set up in a similar manner. 100 nL of each 2× agonist serial dilution was added in duplicate to the designated agonist rows of the assay plate using the Labcyte ECHO. […] Samples were read on Tecan i-control plate reader using luminescence mode with 100 ms integration time. […]

In the next assay the target is T2, GIP-R (Homo sapiens, UniProt P48546).
T2 sequence (P48546 22-466): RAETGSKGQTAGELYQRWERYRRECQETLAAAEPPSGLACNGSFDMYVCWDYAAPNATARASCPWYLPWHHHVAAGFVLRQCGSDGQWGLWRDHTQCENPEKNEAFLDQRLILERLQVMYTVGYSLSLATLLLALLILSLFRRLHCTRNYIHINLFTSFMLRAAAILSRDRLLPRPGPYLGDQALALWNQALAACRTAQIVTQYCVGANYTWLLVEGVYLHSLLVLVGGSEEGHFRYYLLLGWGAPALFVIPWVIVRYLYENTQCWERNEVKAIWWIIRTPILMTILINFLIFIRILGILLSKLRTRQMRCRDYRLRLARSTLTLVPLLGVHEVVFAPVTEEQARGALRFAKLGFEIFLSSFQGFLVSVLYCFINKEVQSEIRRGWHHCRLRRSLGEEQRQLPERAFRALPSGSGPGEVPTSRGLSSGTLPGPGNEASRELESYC
Kind of assay: HitHunter cAMP assay (GIP-R). The protocol: as §1
For orientation: Cyclic AMP is a second messenger, typically raised through Gs and lowered through Gi signalling.

Some results are limits rather than exact numbers.

As usually defined, the EC50 is the concentration at which the effect is half-maximal. As usually defined, the Emax is the greatest response seen or fitted, relative to the assay's reference.

Turning to `CCCCCCCCCCCCCCCC(=O)N[C@@H](CCC(=O)NCCCC[C@H](NC(=O)[C@H](CO)NC(=O)[C@@H]1CCCN1C(=O)[C@@H]1CCCN1C(=O)[C@@H]1CCCN1C(=O)[C@H](C)NC(=O)CNC(=O)[C@H](CO)NC(=O)[C@H](CO)NC(=O)[C@@H]1CCCN1C(=O)CNC(=O)CNC(=O)[C@H](CCCCN)NC(=O)[C@@H](NC(=O)[C@H](CC(C)C)NC(=O)[C@H](Cc1c[nH]c2ccccc12)NC(=O)[C@H](C)NC(=O)[C@@H](NC(=O)[C@H](Cc1ccccc1)NC(=O)[C@H](CCC(=O)O)NC(=O)[C@H](CCCCN)NC(=O)[C@H](C)NC(=O)[C@H](C)NC(=O)[C@H](CCC(N)=O)NC(=O)CNC(=O)[C@H](CCC(=O)O)NC(=O)[C@H](CC(C)C)NC(=O)[C@H](Cc1ccc(O)cc1)NC(=O)[C@H](CO)NC(=O)[C@H](CO)NC(=O)[C@@H](NC(=O)[C@H](CC(=O)O)NC(=O)[C@H](CO)NC(=O)[C@@H](NC(=O)[C@H](Cc1ccccc1)NC(=O)[C@@H](NC(=O)CNC(=O)[C@H](CCC(=O)O)NC(=O)CSCC(=O)NCCN1C(=O)CSC1=O)[C@@H](C)O)[C@@H](C)O)C(C)C)[C@@H](C)CC)C(C)C)C(N)=O)C(=O)O` [Compound 73], the EC50 at GLP-1R [1] (Table 3) was 0.1 to 1 nM; at GLP-1R [1] (Table 3A), 0.1 to 1 nM; at GLP-1R [2] it was > 1000 nM; on GIP-R (Table 3), 10 to 100 nM; on GIP-R (Table 3A), 10 to 100 nM. For the same compound, the Emax at GLP-1R [1] (Table 3) was 93%; at GLP-1R [1] (Table 3A), 93%; at GIP-R (Table 3), 78%; on GIP-R (Table 3A) it was 78%.
